Target: T1, D2 receptor (Rattus norvegicus, UniProt P61169)
T1 construct: on rat brain striatal membrane preparation; from tissue; host or cells: rat brain striatum membranes
Assay: D2 receptor binding ([3H]spiperone, rat brain striatal membrane preparation)

Protein sequences, listed by entry. Tags and fused reporters are not part of them.
UniProt P61169, whole entry: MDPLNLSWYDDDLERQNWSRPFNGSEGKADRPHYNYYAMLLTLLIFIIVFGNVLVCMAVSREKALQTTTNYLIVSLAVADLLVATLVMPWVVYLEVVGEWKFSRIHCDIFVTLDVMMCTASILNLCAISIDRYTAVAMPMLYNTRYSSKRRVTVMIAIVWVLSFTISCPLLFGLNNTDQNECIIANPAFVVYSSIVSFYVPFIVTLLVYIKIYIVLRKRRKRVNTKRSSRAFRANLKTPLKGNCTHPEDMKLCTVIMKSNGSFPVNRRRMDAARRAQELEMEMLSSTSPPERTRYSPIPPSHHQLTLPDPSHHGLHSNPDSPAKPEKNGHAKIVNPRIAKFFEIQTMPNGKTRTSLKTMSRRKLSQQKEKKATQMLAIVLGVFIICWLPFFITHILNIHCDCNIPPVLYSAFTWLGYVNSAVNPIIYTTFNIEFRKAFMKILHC

SMILES: CNc1nc(Cl)c(Cl)c(N2CCN(CC[C@H]3CC[C@H](NC(=O)N4CCOCC4)CC3)CC2)n1 [Compound 7, trans-morpholine-4-carboxylic acid (4-{2-[4-(5,6-dichloro-2-methylamino-pyrimidin-4-yl)-piperazin-1-yl]-ethyl}-cyclohexyl)-amide]
- D2 Sel. (D2/D3 selectivity, i.e., Ki for D2 receptor divided by Ki for D3 receptor): 7
